## Yeast mating assay 1: variants of the scFv Ab-14

Reference: Engelhart et al. 2022, doi:10.1038/s41597-022-01779-4. File: FLAb, binding data.

All variants were tested on one target, the spike HR2 peptide PDVDLGDISGINAS (SARS-CoV-2).

Parent: Ab-14, a human scFv built as VH, a (GGGGS)3 linker, VL. Only the CDRs of the heavy chain vary.
VH: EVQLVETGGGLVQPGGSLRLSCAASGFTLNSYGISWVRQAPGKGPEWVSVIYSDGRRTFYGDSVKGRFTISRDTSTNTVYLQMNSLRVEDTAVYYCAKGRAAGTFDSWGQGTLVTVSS
VL: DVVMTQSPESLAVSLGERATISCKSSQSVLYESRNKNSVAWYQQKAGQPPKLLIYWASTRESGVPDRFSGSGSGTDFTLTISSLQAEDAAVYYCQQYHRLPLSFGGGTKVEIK

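Phage display of a naive human antibody library on the peptide gave the parent. The library (AAYL49) carries one to three amino acid substitutions per variant, with no insertions or deletions. AlphaSeq pools MATa yeast showing the antibodies with MATalpha yeast showing the peptide. Binding brings cells together so that they mate, and sequencing counts the barcode pairs among the diploids. Each replicate has its own calibration line, from reference interactions of the BCL2 family. Mating was done three times.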

Positions count from residue 1 of the parent VH; I34W puts W in place of I.
The read-out is the apparent dissociation constant on a log10 scale (nM): the lower, the stronger.
A pair that was not seen in that replicate is written "nd"; this usually means weak binding, but a binder can also be missed.
Parent in this assay: reference entry 0.65, copy in this library 4.11 (one replicate of three).

| changes | replicates, log10 nM | control signals |
|---|---|---|
| I34W R56I K65L | nd / nd / nd | 2 of 9 (3.59) |
| T28W N30R D106N | 4.15 / nd / nd | 0 of 9 |
| S53G S63K F105D | nd / nd / nd | 1 of 9 (3.27) |
| L29K G33W | nd / 3.01 / nd | 0 of 9 |
| N30G Y52I S53A | nd / nd / nd | 2 of 9 (5.10) |
| L29M I34P G103I | nd / 3.05 / 5.27 | 7 of 9 (4.09) |
| R56A R57S F105Y | 4.12 / 4.00 / nd | 1 of 9 (3.40) |
| G26T T104G S107V | 4.06 / nd / 3.62 | 3 of 9 (3.83) |
| T28R S35A S53L | 4.00 / nd / nd | 3 of 9 (4.25) |
| T58C V64F A101M | 1.44 / 1.61 / 1.72 | 0 of 9 |
| S35Q R56Y R100I | 3.66 / 3.44 / nd | 1 of 9 (4.82) |
| Y32D K65Y A101G | nd / nd / nd | 1 of 9 (4.43) |
| D54G D106L S107V | nd / nd / nd | 0 of 9 |
| N30G S53P F59K | nd / nd / nd | 0 of 9 |
| R57K V64Q A102T | nd / nd / 1.94 | 0 of 9 |
| G26W F59K | nd / 2.41 / nd | 0 of 9 |
| F27C R57W G61K | nd / 4.03 / nd | 2 of 9 (3.42) |
| F27I T28N S35R | nd / nd / nd | 0 of 9 |
| I51A D106R S107A | 6.55 / 4.40 / 3.98 | 3 of 9 (4.78) |
| G26N G33I Y60Q | 3.94 / 3.46 / 3.96 | 3 of 9 (4.24) |
| V64I A102T | 3.26 / 3.88 / 3.49 | 4 of 9 (4.70) |
| L29C S53E A102W | 4.66 / 3.24 / nd | 2 of 9 (4.43) |
| N30G Y32H D54K | nd / nd / nd | 2 of 9 (3.92) |
| F59M V64F | 0.70 / 0.94 / 0.84 | 1 of 9 (3.01) |
| S31L I34Y D106L | nd / nd / nd | 0 of 9 |
| G26K G99D | nd / nd / 5.81 | 3 of 9 (4.70) |
| A101V D106E | 0.69 / 0.50 / 0.29 | 1 of 9 (5.02) |
| I34L Y52S F105T | nd / nd / nd | 0 of 9 |
| F27E I34G G55Y | 3.79 / nd / nd | 0 of 9 |
| I34Y A101P T104I | nd / nd / nd | 0 of 9 |
| S53D V64A F105I | 4.02 / nd / 5.23 | 2 of 9 (3.86) |
| G55W A101S | nd / nd / 3.79 | 1 of 9 (3.37) |
| L29Q Y52G G99F | nd / 3.11 / nd | 1 of 9 (4.20) |
| L29Y T104W S107I | nd / nd / nd | 0 of 9 |

5 of these entries, quoted again:

| changes | replicates, log10 nM | control signals |
|---|---|---|
| L29K G33W | nd / 3.01 / nd | 0 of 9 |
| S35Q R56Y R100I | 3.66 / 3.44 / nd | 1 of 9 (4.82) |
| F27I T28N S35R | nd / nd / nd | 0 of 9 |
| L29Q Y52G G99F | nd / 3.11 / nd | 1 of 9 (4.20) |
| G55W A101S | nd / nd / 3.79 | 1 of 9 (3.37) |

Three control strains display no target. For library AAYL49, 15% of the pairings with them gave a signal, with a median of 4.06 and one signal in twenty below 2.83, so weak values seen in few replicates may be background. Also given: how often the same scFv was detected with the empty control strains, with their mean in brackets.